The compounds below were run against BaF3 cell lines stably transfected with kinase EGFR L858R/T790M (Homo sapiens, UniProt P00533, T790M/L858R, cells depend on it) (assay: Growth inhibition of BaF3 cell line stably transfected with kinase EGFR L858R/T790M (MTS)). Conditions: read-out: growth inhibitory activity IC50, L858R/T790M, 48 h.
Method: (§1) Biological Activity Assay: Growth Inhibitory Activity of Compounds on Cell Lines Stably Transfected with Kinase
(§2) The activity of compounds against various mutants of kinase EGFR was evaluated by their effect of inhibiting growth of BaF3 cell lines stably transfected with kinase. The specific test method was given as follows:
(§3) 1) Culture medium: DMEM (Dulbecco's modified eagle medium) or RPMI 1640 (containing 10% fetal bovine serum, 100 μg/mL ampicillin, 100 μg/mL streptomycin).
(§4) 2) Reagent: MTS reaction solution (containing 2 mg/mL of MTS [3-(4,5-di methylthiazol-2-yl)-5-(3-carboxymethoxyphenyl)-2-(4-sulfophenyl)-2H-tetrazolium, inner Salt]; 100 μg/mL of PES (phenazine […])).
(§5) 3) Compound test: cells were incubated into a 96-well culture plate, the volume of cytosol was 90 μL, and then 10 μL of the compound at each gradient concentration was added. That is, the highest concentration was 10 μM, which was diluted stepwise by ⅓, and 8 concentration points were set in total; 0.1% DMSO (dimethyl sulfoxide) was contained in the system. The cell plate with uniformly mixed compound was cultured in a cell culture incubator (37° C.; 5% […]) for 48 h, then 20 μL of MTS reaction solution was added, uniformly mixed and incubated in the cell culture incubator (37° C.; 5% CO2) for 1-4 h; OD values at 490 nm were measured by a microplate reader (VARIOSKAN FLASH, Thermo). Two parallels were set in each group of experiments, with 0.1% (a final concentration) DMSO as a negative control, and a culture medium without cells and compounds as a blank control. The cell growth inhibition rate was calculated by the following formula: Cell growth inhibition rate %=1−(ODexperimental group−ODblank group)/(ODnegative group−ODblank group)×100%.
(§6) 4) IC50 calculation: The semi-inhibitory concentration of the compounds acting on cells was calculated using GradPad Prism 5 software according to the measured cell growth inhibition rate.

Amino acid sequences for entries named in this document (tags omitted). A change or cut given only in a name is not applied to a line headed by its entry. Chains listed by the source or under a name are the forms on record and can include a tag or linker.
UniProt P00533, whole entry L858R: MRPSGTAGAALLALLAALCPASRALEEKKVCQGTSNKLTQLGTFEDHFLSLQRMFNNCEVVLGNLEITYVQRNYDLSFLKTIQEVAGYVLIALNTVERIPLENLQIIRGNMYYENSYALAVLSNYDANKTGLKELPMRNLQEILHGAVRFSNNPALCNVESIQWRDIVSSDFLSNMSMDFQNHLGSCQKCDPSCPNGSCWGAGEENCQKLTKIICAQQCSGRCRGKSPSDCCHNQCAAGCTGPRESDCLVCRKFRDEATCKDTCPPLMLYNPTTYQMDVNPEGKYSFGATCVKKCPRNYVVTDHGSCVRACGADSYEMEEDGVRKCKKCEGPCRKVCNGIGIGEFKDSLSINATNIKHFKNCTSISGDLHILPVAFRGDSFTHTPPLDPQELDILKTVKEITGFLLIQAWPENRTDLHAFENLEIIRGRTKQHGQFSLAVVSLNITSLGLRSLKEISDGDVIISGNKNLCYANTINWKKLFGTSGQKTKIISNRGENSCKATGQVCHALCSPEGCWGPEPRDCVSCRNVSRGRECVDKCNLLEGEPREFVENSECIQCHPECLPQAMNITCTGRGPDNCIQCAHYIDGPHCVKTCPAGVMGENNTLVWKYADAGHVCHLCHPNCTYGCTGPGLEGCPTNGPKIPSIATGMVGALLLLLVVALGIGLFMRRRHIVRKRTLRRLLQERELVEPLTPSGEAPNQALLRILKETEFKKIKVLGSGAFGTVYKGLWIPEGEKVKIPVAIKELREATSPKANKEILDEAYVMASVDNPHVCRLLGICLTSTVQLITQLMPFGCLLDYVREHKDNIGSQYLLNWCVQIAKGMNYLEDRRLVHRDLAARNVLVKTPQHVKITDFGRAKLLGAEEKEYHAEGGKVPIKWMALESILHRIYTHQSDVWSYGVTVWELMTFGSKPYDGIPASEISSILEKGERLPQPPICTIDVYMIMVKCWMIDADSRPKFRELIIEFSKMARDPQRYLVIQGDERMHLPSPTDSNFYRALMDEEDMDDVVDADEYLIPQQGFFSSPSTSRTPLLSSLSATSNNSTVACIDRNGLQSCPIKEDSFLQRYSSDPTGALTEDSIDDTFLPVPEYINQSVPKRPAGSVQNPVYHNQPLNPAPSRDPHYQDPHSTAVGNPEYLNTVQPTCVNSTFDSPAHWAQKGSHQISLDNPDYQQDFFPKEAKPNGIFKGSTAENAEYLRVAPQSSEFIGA
UniProt P00533, whole entry T790M/L858R: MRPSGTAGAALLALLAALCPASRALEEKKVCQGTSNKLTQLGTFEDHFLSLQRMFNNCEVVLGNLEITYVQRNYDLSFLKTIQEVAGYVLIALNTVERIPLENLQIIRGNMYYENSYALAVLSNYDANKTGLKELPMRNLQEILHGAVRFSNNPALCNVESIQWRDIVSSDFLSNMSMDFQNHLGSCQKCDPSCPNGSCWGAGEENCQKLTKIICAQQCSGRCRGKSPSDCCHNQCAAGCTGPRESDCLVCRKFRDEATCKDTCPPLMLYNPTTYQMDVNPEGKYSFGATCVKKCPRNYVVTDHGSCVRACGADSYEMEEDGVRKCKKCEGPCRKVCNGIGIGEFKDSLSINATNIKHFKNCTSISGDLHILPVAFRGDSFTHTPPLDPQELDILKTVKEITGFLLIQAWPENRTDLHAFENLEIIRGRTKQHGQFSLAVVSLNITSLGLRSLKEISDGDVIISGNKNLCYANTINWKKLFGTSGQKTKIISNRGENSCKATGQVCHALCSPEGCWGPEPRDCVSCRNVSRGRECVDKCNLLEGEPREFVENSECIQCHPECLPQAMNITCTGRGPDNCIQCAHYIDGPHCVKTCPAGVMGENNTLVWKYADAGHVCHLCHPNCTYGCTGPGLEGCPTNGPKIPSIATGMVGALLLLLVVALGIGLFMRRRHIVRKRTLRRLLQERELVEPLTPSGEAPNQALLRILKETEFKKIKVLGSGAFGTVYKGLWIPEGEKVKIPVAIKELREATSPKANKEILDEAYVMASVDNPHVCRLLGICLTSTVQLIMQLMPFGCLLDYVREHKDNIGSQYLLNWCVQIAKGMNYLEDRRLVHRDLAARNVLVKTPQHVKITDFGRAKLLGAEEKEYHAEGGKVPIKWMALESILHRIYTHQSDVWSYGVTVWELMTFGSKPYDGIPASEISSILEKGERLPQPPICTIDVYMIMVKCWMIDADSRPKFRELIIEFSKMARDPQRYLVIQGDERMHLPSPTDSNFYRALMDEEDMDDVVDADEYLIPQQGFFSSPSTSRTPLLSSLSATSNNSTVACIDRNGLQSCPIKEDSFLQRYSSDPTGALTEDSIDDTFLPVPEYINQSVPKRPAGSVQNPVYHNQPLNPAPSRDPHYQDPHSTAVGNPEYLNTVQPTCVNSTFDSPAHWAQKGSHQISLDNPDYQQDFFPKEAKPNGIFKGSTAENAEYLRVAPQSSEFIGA
UniProt P00533, whole entry T790M/C797S/L858R: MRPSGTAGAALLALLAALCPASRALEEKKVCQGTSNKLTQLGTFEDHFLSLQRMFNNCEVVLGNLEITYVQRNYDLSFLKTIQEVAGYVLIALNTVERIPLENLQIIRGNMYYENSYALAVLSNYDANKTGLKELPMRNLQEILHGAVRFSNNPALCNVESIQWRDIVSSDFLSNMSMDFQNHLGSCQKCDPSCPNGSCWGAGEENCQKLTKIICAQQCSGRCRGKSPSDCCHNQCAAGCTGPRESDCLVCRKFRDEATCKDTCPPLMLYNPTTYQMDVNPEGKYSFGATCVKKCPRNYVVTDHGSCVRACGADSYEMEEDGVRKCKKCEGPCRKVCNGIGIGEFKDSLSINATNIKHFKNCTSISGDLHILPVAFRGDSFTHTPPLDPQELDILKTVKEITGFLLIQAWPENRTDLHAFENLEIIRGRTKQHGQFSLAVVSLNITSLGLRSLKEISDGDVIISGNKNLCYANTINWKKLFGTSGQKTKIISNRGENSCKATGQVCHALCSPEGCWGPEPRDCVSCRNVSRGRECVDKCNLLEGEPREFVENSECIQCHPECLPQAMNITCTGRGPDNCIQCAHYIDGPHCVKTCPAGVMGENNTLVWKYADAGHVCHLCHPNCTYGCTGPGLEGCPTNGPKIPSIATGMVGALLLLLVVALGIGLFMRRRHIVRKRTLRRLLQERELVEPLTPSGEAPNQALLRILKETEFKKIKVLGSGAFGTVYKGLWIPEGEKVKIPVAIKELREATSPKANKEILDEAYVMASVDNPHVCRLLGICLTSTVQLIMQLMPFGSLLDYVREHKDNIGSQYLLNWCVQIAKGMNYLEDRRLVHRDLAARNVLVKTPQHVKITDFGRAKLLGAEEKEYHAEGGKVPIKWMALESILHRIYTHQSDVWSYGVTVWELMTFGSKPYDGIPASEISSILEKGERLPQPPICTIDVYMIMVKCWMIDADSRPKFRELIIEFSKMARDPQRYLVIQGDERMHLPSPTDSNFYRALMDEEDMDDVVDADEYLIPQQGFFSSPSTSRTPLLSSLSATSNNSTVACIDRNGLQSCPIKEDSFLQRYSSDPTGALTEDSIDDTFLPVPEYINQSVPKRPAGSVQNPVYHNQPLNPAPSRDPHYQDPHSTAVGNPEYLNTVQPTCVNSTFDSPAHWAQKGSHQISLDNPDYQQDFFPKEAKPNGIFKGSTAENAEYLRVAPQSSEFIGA
UniProt P00533, with tags, fused parts or gaps DEL746-750: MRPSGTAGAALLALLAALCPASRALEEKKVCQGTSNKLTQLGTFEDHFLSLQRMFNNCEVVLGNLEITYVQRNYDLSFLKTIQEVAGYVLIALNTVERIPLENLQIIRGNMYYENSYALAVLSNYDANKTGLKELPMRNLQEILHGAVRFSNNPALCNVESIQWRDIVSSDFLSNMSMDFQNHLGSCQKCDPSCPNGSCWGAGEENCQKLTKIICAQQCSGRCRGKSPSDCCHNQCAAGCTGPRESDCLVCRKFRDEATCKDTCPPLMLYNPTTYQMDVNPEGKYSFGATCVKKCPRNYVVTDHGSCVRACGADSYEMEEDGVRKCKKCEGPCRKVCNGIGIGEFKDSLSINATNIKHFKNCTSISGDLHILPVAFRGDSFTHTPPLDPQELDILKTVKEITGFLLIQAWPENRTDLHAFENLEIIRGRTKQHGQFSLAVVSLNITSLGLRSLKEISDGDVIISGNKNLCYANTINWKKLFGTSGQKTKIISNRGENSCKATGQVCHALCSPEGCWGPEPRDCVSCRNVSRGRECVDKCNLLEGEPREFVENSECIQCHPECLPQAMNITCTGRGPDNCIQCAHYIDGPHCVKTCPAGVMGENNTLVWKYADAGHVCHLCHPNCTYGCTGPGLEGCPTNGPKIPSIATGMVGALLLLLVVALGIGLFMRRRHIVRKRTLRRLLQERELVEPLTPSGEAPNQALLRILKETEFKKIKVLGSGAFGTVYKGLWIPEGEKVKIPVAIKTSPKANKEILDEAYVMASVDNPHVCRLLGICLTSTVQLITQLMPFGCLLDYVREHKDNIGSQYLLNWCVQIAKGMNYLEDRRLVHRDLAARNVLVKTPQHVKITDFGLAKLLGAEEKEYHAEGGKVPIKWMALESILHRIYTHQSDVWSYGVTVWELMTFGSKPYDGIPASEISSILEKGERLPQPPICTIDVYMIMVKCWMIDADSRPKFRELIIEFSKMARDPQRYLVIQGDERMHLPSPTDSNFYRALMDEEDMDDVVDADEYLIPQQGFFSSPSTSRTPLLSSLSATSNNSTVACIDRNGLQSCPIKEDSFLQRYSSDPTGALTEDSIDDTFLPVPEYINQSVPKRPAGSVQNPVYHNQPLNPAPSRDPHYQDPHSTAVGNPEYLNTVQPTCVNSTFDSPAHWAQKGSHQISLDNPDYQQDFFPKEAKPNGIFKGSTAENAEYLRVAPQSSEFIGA
UniProt P00533, with tags, fused parts or gaps DEL746-750/T790M: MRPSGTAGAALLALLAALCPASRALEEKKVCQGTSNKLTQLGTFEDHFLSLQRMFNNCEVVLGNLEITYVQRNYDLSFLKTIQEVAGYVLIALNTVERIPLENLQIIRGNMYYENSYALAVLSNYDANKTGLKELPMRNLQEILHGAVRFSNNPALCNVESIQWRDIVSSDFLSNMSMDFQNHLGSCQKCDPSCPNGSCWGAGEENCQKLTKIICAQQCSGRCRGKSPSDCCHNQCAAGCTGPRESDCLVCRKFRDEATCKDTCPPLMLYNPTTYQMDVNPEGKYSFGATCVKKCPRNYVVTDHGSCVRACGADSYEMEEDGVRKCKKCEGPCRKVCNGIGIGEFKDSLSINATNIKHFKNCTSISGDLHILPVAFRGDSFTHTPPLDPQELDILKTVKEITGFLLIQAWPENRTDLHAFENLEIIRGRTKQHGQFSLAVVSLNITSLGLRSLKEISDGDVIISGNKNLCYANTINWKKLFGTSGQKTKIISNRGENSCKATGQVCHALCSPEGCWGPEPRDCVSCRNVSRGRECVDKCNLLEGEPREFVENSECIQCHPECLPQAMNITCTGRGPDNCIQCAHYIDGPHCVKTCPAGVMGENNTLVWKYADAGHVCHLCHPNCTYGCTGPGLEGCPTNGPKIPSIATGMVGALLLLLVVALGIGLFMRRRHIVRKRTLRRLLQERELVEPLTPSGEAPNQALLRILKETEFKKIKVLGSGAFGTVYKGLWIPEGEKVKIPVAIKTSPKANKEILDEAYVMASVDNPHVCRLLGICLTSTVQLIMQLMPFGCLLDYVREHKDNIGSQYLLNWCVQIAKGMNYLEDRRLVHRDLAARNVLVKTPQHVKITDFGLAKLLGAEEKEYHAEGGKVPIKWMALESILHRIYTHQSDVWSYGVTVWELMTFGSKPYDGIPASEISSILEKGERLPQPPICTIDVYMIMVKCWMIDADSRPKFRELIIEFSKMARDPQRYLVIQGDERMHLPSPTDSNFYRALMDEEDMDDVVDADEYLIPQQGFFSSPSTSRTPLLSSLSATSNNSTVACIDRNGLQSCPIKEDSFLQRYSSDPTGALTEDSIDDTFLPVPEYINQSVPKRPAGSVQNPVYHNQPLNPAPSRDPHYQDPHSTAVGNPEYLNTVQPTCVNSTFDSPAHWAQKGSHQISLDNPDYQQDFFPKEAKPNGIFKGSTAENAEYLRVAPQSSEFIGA

GI50 | Structure (SMILES)
< 50 nM | C=C(C)c1cnc(Nc2cc(CC)c(N3CCC(N4CCN(C)CC4)CC3)nc2OC)nc1Nc1ccc2nccnc2c1N(C)S(C)(=O)=O
50 to 500 nM | C=Cc1cnc(Nc2cn[nH]c2)nc1Nc1ccc2nccnc2c1N(C)S(C)(=O)=O
< 50 nM | C=C(C)c1cnc(Nc2cc(CC)c(N3CCC(N4CCN(C)CC4)CC3)nc2OC)nc1Nc1ccc2nccnc2c1P(C)(C)=O

More lines, now with the values behind:

Structure (SMILES) | GI50
C=Cc1cnc(Nc2cc(CC)c(N3CCC(N4CCN(C)CC4)CC3)cc2OC)nc1Nc1ccc2nccnc2c1N(C)S(=O)(=O)C(C)C | 50 to 500 nM
C=Cc1cnc(Nc2cc(C3CCN(C)CC3)ccc2OC)nc1Nc1ccc2nccnc2c1P(C)(C)=O | 50 to 500 nM
C=Cc1cnc(Nc2ccc(N3CCC(N4CCN(C)CC4)CC3)cc2OC)nc1Nc1ccc2nccnc2c1NS(C)(=O)=O | 50 to 500 nM

These compounds were tested against BaF3 cell lines stably transfected with kinase EGFR L858R/T790M/C797S (Homo sapiens, UniProt P00533, T790M/C797S/L858R, cells depend on it) (assay: Growth inhibition of BaF3 cell line stably transfected with kinase EGFR L858R/T790M/C797S (MTS)). Conditions: read-out: growth inhibitory activity IC50, L858R/T790M/C797S, 48 h.
Method: as §1, §2, §3, §4, §5, §6

GI50 | Structure (SMILES)
50 to 500 nM | C=C(C)c1cnc(Nc2cc(CC)c(N3CCC(N4CCN(C)CC4)CC3)nc2OC)nc1Nc1ccc2nccnc2c1N(C)S(C)(=O)=O
50 to 500 nM | C=Cc1cnc(Nc2cn[nH]c2)nc1Nc1ccc2nccnc2c1N(C)S(C)(=O)=O
< 50 nM | C=C(C)c1cnc(Nc2cc(CC)c(N3CCC(N4CCN(C)CC4)CC3)nc2OC)nc1Nc1ccc2nccnc2c1P(C)(C)=O

The next lines start with the compound.

Structure (SMILES) | GI50
C=Cc1cnc(Nc2cc(CC)c(N3CCC(N4CCN(C)CC4)CC3)cc2OC)nc1Nc1ccc2nccnc2c1N(C)S(=O)(=O)C(C)C | 50 to 500 nM
C=Cc1cnc(Nc2cc(C3CCN(C)CC3)ccc2OC)nc1Nc1ccc2nccnc2c1P(C)(C)=O | < 50 nM
C=Cc1cnc(Nc2ccc(N3CCC(N4CCN(C)CC4)CC3)cc2OC)nc1Nc1ccc2nccnc2c1NS(C)(=O)=O | 50 to 500 nM

What follows are compounds tested against BaF3 cell lines stably transfected with kinase EGFR L858R (Homo sapiens, UniProt P00533, L858R, cells depend on it) (assay: Growth inhibition of BaF3 cell line stably transfected with kinase EGFR L858R (MTS)). Conditions: read-out: growth inhibitory activity IC50, L858R, 48 h.
Method: as §1, §2, §3, §4, §5, §6

GI50 | Structure (SMILES)
< 50 nM | C=C(C)c1cnc(Nc2cc(CC)c(N3CCC(N4CCN(C)CC4)CC3)nc2OC)nc1Nc1ccc2nccnc2c1N(C)S(C)(=O)=O
50 to 500 nM | C=Cc1cnc(Nc2cn[nH]c2)nc1Nc1ccc2nccnc2c1N(C)S(C)(=O)=O
< 50 nM | C=C(C)c1cnc(Nc2cc(CC)c(N3CCC(N4CCN(C)CC4)CC3)nc2OC)nc1Nc1ccc2nccnc2c1P(C)(C)=O

More lines, now with the values behind:

Structure (SMILES) | GI50
C=Cc1cnc(Nc2cc(CC)c(N3CCC(N4CCN(C)CC4)CC3)cc2OC)nc1Nc1ccc2nccnc2c1N(C)S(=O)(=O)C(C)C | 50 to 500 nM
C=Cc1cnc(Nc2cc(C3CCN(C)CC3)ccc2OC)nc1Nc1ccc2nccnc2c1P(C)(C)=O | < 50 nM
C=Cc1cnc(Nc2ccc(N3CCC(N4CCN(C)CC4)CC3)cc2OC)nc1Nc1ccc2nccnc2c1NS(C)(=O)=O | 50 to 500 nM

The compounds below were run against BaF3 cell lines stably transfected with kinase EGFR Del (Homo sapiens, UniProt P00533, cells depend on it, form not given) (assay: Growth inhibition of BaF3 cell line stably transfected with kinase EGFR Del (MTS)). Conditions: read-out: growth inhibitory activity IC50, Del, 48 h.
Method: as §1, §2, §3, §4, §5, §6

GI50 | Structure (SMILES)
< 50 nM | C=C(C)c1cnc(Nc2cc(CC)c(N3CCC(N4CCN(C)CC4)CC3)nc2OC)nc1Nc1ccc2nccnc2c1N(C)S(C)(=O)=O
50 to 500 nM | C=Cc1cnc(Nc2cn[nH]c2)nc1Nc1ccc2nccnc2c1N(C)S(C)(=O)=O
< 50 nM | C=C(C)c1cnc(Nc2cc(CC)c(N3CCC(N4CCN(C)CC4)CC3)nc2OC)nc1Nc1ccc2nccnc2c1P(C)(C)=O

The next lines start with the compound.

Structure (SMILES) | GI50
C=Cc1cnc(Nc2cc(CC)c(N3CCC(N4CCN(C)CC4)CC3)cc2OC)nc1Nc1ccc2nccnc2c1N(C)S(=O)(=O)C(C)C | 50 to 500 nM
C=Cc1cnc(Nc2cc(C3CCN(C)CC3)ccc2OC)nc1Nc1ccc2nccnc2c1P(C)(C)=O | < 50 nM
C=Cc1cnc(Nc2ccc(N3CCC(N4CCN(C)CC4)CC3)cc2OC)nc1Nc1ccc2nccnc2c1NS(C)(=O)=O | 50 to 500 nM

These compounds were tested against BaF3 cell lines stably transfected with kinase EGFR Del/T790M/C797S (Homo sapiens, UniProt P00533, T790M/C797S, cells depend on it, form not given) (assay: Growth inhibition of BaF3 cell line stably transfected with kinase EGFR Del/T790M/C797S (MTS)). Conditions: read-out: growth inhibitory activity IC50, Del/T790M/C797S, 48 h.
Method: as §1, §2, §3, §4, §5, §6

GI50 | Structure (SMILES)
50 to 500 nM | C=C(C)c1cnc(Nc2cc(CC)c(N3CCC(N4CCN(C)CC4)CC3)nc2OC)nc1Nc1ccc2nccnc2c1N(C)S(C)(=O)=O
50 to 500 nM | C=Cc1cnc(Nc2cn[nH]c2)nc1Nc1ccc2nccnc2c1N(C)S(C)(=O)=O
< 50 nM | C=C(C)c1cnc(Nc2cc(CC)c(N3CCC(N4CCN(C)CC4)CC3)nc2OC)nc1Nc1ccc2nccnc2c1P(C)(C)=O

The remaining lines, values behind:

Structure (SMILES) | GI50
C=Cc1cnc(Nc2cc(CC)c(N3CCC(N4CCN(C)CC4)CC3)cc2OC)nc1Nc1ccc2nccnc2c1N(C)S(=O)(=O)C(C)C | 50 to 500 nM
C=Cc1cnc(Nc2cc(C3CCN(C)CC3)ccc2OC)nc1Nc1ccc2nccnc2c1P(C)(C)=O | 50 to 500 nM
C=Cc1cnc(Nc2ccc(N3CCC(N4CCN(C)CC4)CC3)cc2OC)nc1Nc1ccc2nccnc2c1NS(C)(=O)=O | 500 to 2500 nM

The compounds below were run against BaF3 cell lines stably transfected with kinase EGFR Del/T790M (Homo sapiens, UniProt P00533, T790M, cells depend on it, form not given) (assay: Growth inhibition of BaF3 cell line stably transfected with kinase EGFR Del/T790M (MTS)). Conditions: read-out: growth inhibitory activity IC50, Del/T790M, 48 h.
Method: as §1, §2, §3, §4, §5, §6

GI50 | Structure (SMILES)
< 50 nM | C=C(C)c1cnc(Nc2cc(CC)c(N3CCC(N4CCN(C)CC4)CC3)nc2OC)nc1Nc1ccc2nccnc2c1N(C)S(C)(=O)=O
50 to 500 nM | C=Cc1cnc(Nc2cn[nH]c2)nc1Nc1ccc2nccnc2c1N(C)S(C)(=O)=O
< 50 nM | C=C(C)c1cnc(Nc2cc(CC)c(N3CCC(N4CCN(C)CC4)CC3)nc2OC)nc1Nc1ccc2nccnc2c1P(C)(C)=O

Second part, the compound before the results:

Structure (SMILES) | GI50
C=Cc1cnc(Nc2cc(CC)c(N3CCC(N4CCN(C)CC4)CC3)cc2OC)nc1Nc1ccc2nccnc2c1N(C)S(=O)(=O)C(C)C | 50 to 500 nM
C=Cc1cnc(Nc2cc(C3CCN(C)CC3)ccc2OC)nc1Nc1ccc2nccnc2c1P(C)(C)=O | < 50 nM
C=Cc1cnc(Nc2ccc(N3CCC(N4CCN(C)CC4)CC3)cc2OC)nc1Nc1ccc2nccnc2c1NS(C)(=O)=O | 50 to 500 nM

— US12679822B2, “Alkenyl pyrimidine compound, preparation method therefor, and application thereof” (Hongyun Biotech Co., Ltd., priority 2020, dated 2026)
